Measured values taken from patent US6921667B2, “Methods for direct detection of individual methotrexate metabolites” (Prometheus Laboratories, Inc., priority 2003, dated 2005).

Test: Red blood cell methotrexate polyglutamate concentrations in patients on low-dose methotrexate, by HPLC fluorometry with post-column photo-oxidation
Type: in vivo, human
Details: single patient on 17.5 mg weekly methotrexate for at least 3 months; FIG. 4A; packed red blood cells

Substance | concentration in red blood cell sample
4-amino-10-methylpteroyltri-glutamic acid [MTXPG3] | 64 nM
4-amino-10-methylpteroylhexa-glutamic acid [MTXPG6] | undetected
